Experimental data reported in US8748375B2 (Amylin Pharmaceuticals, LLC, priority 2009, dated 2014).

How the values were obtained:
[1] = tested on: insulin-stimulated glycogen synthesis in soleus muscle; test: Soleus Muscle Assay; type: cell-based, rat
Procedure: Concentrations of peptide dissolved in carrier-free buffers are determined by quantitative amino acid analysis, as described therein. The ability of compounds to act as agonists in this assay is determined by measuring EC50 values. […] Similar results were obtained with other agonist compounds listed above.

amylin receptors = target: T1, amylin receptors (Rattus norvegicus, UniProt P32214+Q9JJ74); test: Receptor Binding Assay
T1 construct: This basal forebrain tissue, containing the nucleus accumbens and surrounding regions, was weighed and homogenized; from tissue; host or cells: rat basal forebrain (nucleus accumbens and surrounding regions) membranes
T1 sequence (P32214 25-516): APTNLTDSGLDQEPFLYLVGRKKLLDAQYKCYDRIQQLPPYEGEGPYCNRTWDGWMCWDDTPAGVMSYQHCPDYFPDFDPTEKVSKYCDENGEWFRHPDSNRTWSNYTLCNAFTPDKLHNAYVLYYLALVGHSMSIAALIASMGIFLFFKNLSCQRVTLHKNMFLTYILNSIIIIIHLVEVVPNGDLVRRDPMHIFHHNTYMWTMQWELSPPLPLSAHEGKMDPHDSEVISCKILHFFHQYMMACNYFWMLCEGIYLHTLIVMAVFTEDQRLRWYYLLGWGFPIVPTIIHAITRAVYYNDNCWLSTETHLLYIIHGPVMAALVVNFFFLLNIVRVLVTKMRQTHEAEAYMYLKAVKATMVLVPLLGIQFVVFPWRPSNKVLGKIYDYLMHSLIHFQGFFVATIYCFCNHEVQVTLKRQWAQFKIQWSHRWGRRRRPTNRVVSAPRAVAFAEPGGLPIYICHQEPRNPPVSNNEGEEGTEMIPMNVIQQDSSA
T1 sequence (Q9JJ74 27-148): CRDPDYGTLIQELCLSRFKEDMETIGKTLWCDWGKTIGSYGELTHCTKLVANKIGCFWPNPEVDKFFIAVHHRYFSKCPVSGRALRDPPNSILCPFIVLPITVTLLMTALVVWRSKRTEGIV
Excerpt: A preferred source of the membrane preparations used in the assay is the basal forebrain which comprises membranes from the nucleus accumbens and surrounding regions.
Unlabeled peptides were obtained from BACHEM Inc. (Torrance, Calif.) and Peninsula Laboratories (Belmont, Calif.).
Male Sprague-Dawley rats (200-250) grams were sacrificed by decapitation. Brains were removed to cold phosphate-buffered saline (PBS). From the ventral surface, cuts were made rostral to the hypothalamus, bounded laterally by the olfactory tracts and extending at a 45° angle medially from these tracts. This basal forebrain tissue, containing the nucleus accumbens and surrounding regions, was weighed and homogenized in ice-cold 20 mM HEPES buffer (20 mM HEPES acid, pH adjusted to 7.4 with NaOH at 23° C.). […] The final membrane pellet was resuspended in 20 mM HEPES buffer containing 0.2 mM phenylmethylsulfonyl fluoride (PMSF).
Solutions were incubated for 60 minutes at 23° C. […] Filters were washed immediately before filtration with 5 ml cold PBS, and immediately after filtration with 15 ml cold PBS.

Structure (SMILES)	EC50 ([1]; […] insulin) [nM]	amylin agonist activity (in words) [1]	antagonist activity in soleus muscle assay (in words) [1]	receptor binding activity (in words) (amylin receptors)
CC[C@H](C)[C@H](NC(=O)[C@H](C)NC(=O)CNC(=O)[C@H](Cc1ccccc1)NC(=O)[C@H](CC(N)=O)NC(=O)[C@H](CC(N)=O)NC(=O)[C@H](CO)NC(=O)[C@H](CO)NC(=O)[C@H](Cc1c[nH]cn1)NC(=O)[C@@H](NC(=O)[C@H](CC(C)C)NC(=O)[C@H](Cc1ccccc1)NC(=O)[C@H](CC(N)=O)NC(=O)[C@H](C)NC(=O)[C@H](CC(C)C)NC(=O)[C@H](CCCNC(=N)N)NC(=O)[C@H](CCC(N)=O)NC(=O)[C@@H](NC(=O)[C@H](C)NC(=O)[C@@H]1CSSC[C@H](N)C(=O)N[C@@H](CC(N)=O)C(=O)N[C@@H]([C@@H](C)O)C(=O)N[C@@H](C)C(=O)N[C@@H]([C@@H](C)O)C(=O)N1)[C@@H](C)O)C(C)C)C(=O)N[C@@H](CC(C)C)C(=O)N[C@@H](CO)C(=O)N[C@@H](CO)C(=O)N[C@H](C(=O)N[C@@H](CC(N)=O)C(=O)N[C@H](C(=O)NCC(=O)N[C@@H](CO)C(=O)N[C@@H](CC(N)=O)C(=O)N[C@H](C(=O)N[C@@H](Cc1ccc(O)cc1)C(N)=O)[C@@H](C)O)C(C)C)[C@@H](C)O [^2, 37h-Amylin]	1.63			
CC[C@H](C)[C@H](NC(=O)[C@@H]1CCCN1C(=O)CNC(=O)[C@H](Cc1ccccc1)NC(=O)[C@H](CC(N)=O)NC(=O)[C@H](CC(N)=O)NC(=O)[C@H](CO)NC(=O)[C@H](CO)NC(=O)[C@H](CCCNC(=N)N)NC(=O)[C@@H](NC(=O)[C@H](CC(C)C)NC(=O)[C@H](Cc1ccccc1)NC(=O)[C@H](CC(N)=O)NC(=O)[C@H](C)NC(=O)[C@H](CC(C)C)NC(=O)[C@H](CCCNC(=N)N)NC(=O)[C@H](CCC(N)=O)NC(=O)[C@@H](NC(=O)[C@H](C)NC(=O)[C@@H]1CSSC[C@H](NC(=O)[C@@H](N)CCCCN)C(=O)N[C@@H](CC(N)=O)C(=O)N[C@@H]([C@@H](C)O)C(=O)N[C@@H](C)C(=O)N[C@@H]([C@@H](C)O)C(=O)N1)[C@@H](C)O)C(C)C)C(=O)N[C@@H](CC(C)C)C(=O)N1CCC[C@H]1C(=O)N1CCC[C@H]1C(=O)N[C@H](C(=O)N[C@@H](CC(N)=O)C(=O)N[C@H](C(=O)NCC(=O)N[C@@H](CO)C(=O)N[C@@H](CC(N)=O)C(=O)N[C@H](C(=O)N[C@@H](Cc1ccc(O)cc1)C(N)=O)[C@@H](C)O)C(C)C)[C@@H](C)O [^18Arg^25, 28, 29Pro-h-Amylin]		act as amylin agonists	negligible antagonist activity	compete with amylin
CC[C@H](C)[C@H](NC(=O)[C@@H]1CCCN1C(=O)CNC(=O)[C@H](Cc1ccccc1)NC(=O)[C@H](CC(N)=O)NC(=O)[C@H](CC(N)=O)NC(=O)[C@H](CO)NC(=O)[C@H](CO)NC(=O)[C@H](CCCNC(=N)N)NC(=O)[C@@H](NC(=O)[C@H](CC(C)C)NC(=O)[C@H](Cc1ccccc1)NC(=O)[C@H](CC(N)=O)NC(=O)[C@H](C)NC(=O)[C@H](CC(C)C)NC(=O)[C@H](CCCNC(=N)N)NC(=O)[C@H](CCC(N)=O)NC(=O)[C@@H](NC(=O)[C@H](C)NC(=O)[C@@H]1CSSC[C@H](NC(=O)[C@@H](N)CCCCN)C(=O)N[C@@H](CC(N)=O)C(=O)N[C@@H]([C@@H](C)O)C(=O)N[C@@H](C)C(=O)N[C@@H]([C@@H](C)O)C(=O)N1)[C@@H](C)O)C(C)C)C(=O)N[C@@H](CC(C)C)C(=O)N1CCC[C@H]1C(=O)N[C@@H](CO)C(=O)N[C@H](C(=O)N[C@@H](CC(N)=O)C(=O)N[C@H](C(=O)NCC(=O)N[C@@H](CO)C(=O)N[C@@H](CC(N)=O)C(=O)N[C@H](C(=O)N[C@@H](Cc1ccc(O)cc1)C(N)=O)[C@@H](C)O)C(C)C)[C@@H](C)O [^18Arg^25, 28Pro-h-Amylin]		act as amylin agonists	negligible antagonist activity	compete with amylin
CC[C@H](C)[C@H](NC(=O)[C@@H]1CCCN1C(=O)CNC(=O)[C@H](Cc1ccccc1)NC(=O)[C@H](CC(N)=O)NC(=O)[C@H](CC(N)=O)NC(=O)[C@H](CO)NC(=O)[C@H](CO)NC(=O)[C@H](Cc1c[nH]cn1)NC(=O)[C@@H](NC(=O)[C@H](CC(C)C)NC(=O)[C@H](Cc1ccccc1)NC(=O)[C@H](CC(N)=O)NC(=O)[C@H](C)NC(=O)[C@H](CC(C)C)NC(=O)[C@H](CCCNC(=N)N)NC(=O)[C@H](CCC(N)=O)NC(=O)[C@@H](NC(=O)[C@H](C)NC(=O)[C@@H]1CSSC[C@H](NC(=O)[C@@H](N)CCCCN)C(=O)N[C@@H](CC(N)=O)C(=O)N[C@@H]([C@@H](C)O)C(=O)N[C@@H](C)C(=O)N[C@@H]([C@@H](C)O)C(=O)N1)[C@@H](C)O)C(C)C)C(=O)N[C@@H](CC(C)C)C(=O)N1CCC[C@H]1C(=O)N1CCC[C@H]1C(=O)N[C@H](C(=O)N[C@@H](CC(N)=O)C(=O)N[C@H](C(=O)NCC(=O)N[C@@H](CO)C(=O)N[C@@H](CC(N)=O)C(=O)N[C@H](C(=O)N[C@@H](Cc1ccc(O)cc1)C(N)=O)[C@@H](C)O)C(C)C)[C@@H](C)O [^25, 28, 29Pro-h-Amylin]				compete with amylin
CC(C)C[C@H](NC(=O)[C@H](CCCNC(=N)N)NC(=O)[C@H](CCC(N)=O)NC(=O)[C@@H](NC(=O)[C@H](C)NC(=O)[C@@H]1CSSC[C@H](NC(=O)[C@@H](N)CCCCN)C(=O)N[C@@H](CC(N)=O)C(=O)N[C@@H]([C@@H](C)O)C(=O)N[C@@H](C)C(=O)N[C@@H]([C@@H](C)O)C(=O)N1)[C@@H](C)O)C(=O)N[C@@H](C)C(=O)N[C@@H](CC(N)=O)C(=O)N[C@@H](Cc1ccccc1)C(=O)N[C@@H](CC(C)C)C(=O)N[C@H](C(=O)N[C@@H](Cc1c[nH]cn1)C(=O)N[C@@H](CO)C(=O)N[C@@H](CO)C(=O)N[C@@H](CC(N)=O)C(=O)N[C@@H](CC(N)=O)C(=O)N[C@@H](Cc1ccccc1)C(=O)NCC(=O)N1CCC[C@H]1C(=O)N[C@H](C(=O)N[C@@H](CC(C)C)C(=O)N1CCC[C@H]1C(=O)N1CCC[C@H]1C(=O)N[C@H](C(=O)N[C@@H](CC(N)=O)C(=O)N[C@H](C(=O)NCC(=O)N[C@@H](CO)C(=O)N[C@@H](CC(N)=O)C(=O)N[C@H](C(=O)N[C@@H](Cc1ccc(O)cc1)C(N)=O)[C@@H](C)O)C(C)C)[C@@H](C)O)C(C)C)C(C)C [^25Pro^26Val^28, 29Pro-h-Amylin]		act as amylin agonists	negligible antagonist activity	compete with amylin
CC[C@H](C)[C@H](NC(=O)[C@@H]1CCCN1C(=O)CNC(=O)[C@H](Cc1ccccc1)NC(=O)[C@H](CC(N)=O)NC(=O)[C@H](CC(N)=O)NC(=O)[C@H](CO)NC(=O)[C@H](CO)NC(=O)[C@H](CCCNC(=N)N)NC(=O)[C@@H](NC(=O)[C@H](CC(C)C)NC(=O)[C@H](Cc1ccccc1)NC(=O)[C@H](CC(N)=O)NC(=O)[C@H](C)NC(=O)[C@H](CC(C)C)NC(=O)[C@H](CCCNC(=N)N)NC(=O)[C@H](CCC(N)=O)NC(=O)[C@@H](NC(=O)[C@H](C)NC(=O)[C@@H]1CSSC[C@H](N)C(=O)N[C@@H](CC(N)=O)C(=O)N[C@@H]([C@@H](C)O)C(=O)N[C@@H](C)C(=O)N[C@@H]([C@@H](C)O)C(=O)N1)[C@@H](C)O)C(C)C)C(=O)N[C@@H](CC(C)C)C(=O)N1CCC[C@H]1C(=O)N1CCC[C@H]1C(=O)N[C@H](C(=O)N[C@@H](CC(N)=O)C(=O)N[C@H](C(=O)NCC(=O)N[C@@H](CO)C(=O)N[C@@H](CC(N)=O)C(=O)N[C@H](C(=O)N[C@@H](Cc1ccc(O)cc1)C(N)=O)[C@@H](C)O)C(C)C)[C@@H](C)O [des-^1Lys^18Arg^25, 28, 29Pro-h-Amylin]		act as amylin agonists	negligible antagonist activity	compete with amylin
